The nature of this test: Agonist activity at delta opioid receptor in mouse vas deferens assessed as inhibition of electrically-stimulated muscle contraction.

Among the data in BindingDB's records for doi:10.1016/j.bmcl.2010.05.078 (University of Arizona, 2010) are IC50 values, retold here.

A word on the IC50: it is the concentration that gives 50% inhibition.

On to `Cc1cc(O)cc(C)c1C[C@H](N)C(=O)N1CC(=O)N[C@@H](Cc2cnc[nH]2)C(=O)N[C@H](Cc2ccccc2)C(=O)N[C@@H](CCCN=C(N)N)C(=O)N[C@@H](Cc2c[nH]c3ccccc23)C(=O)N[C@H](C(=O)N[C@@H](CC(=O)O)C(=O)N[C@@H](Cc2ccccc2)C(N)=O)CSSC[C@@H](N)C1=O` [(S)-3-((4R,7S,10S,13R,16S,22S)-16-((1H-imidazol-5-yl)methyl)-7-((1H-indol-3-yl)methyl)-22-amino-20-((S)-2-amino-3-(4-hydroxy-2,6-dimethylphenyl)propanoyl)-13-benzyl-10-(3-guanidinopropyl)-6,9,12,15,18,21-hexaoxo-1,2-dithia-5,8,11,14,17,20-hexaazacyclotricosane-4-carboxamido)-4-((S)-1-amino-1-oxo-3-phenylpropan-2-ylamino)-4-oxobutanoic acid], for which the IC50 was determined as 410 nM.
